Among the data in PMC11145868, “Protein target similarity is positive predictor of in vitro antipathogenic activity: a drug repurposing strategy for Plasmodium falciparum” (Journal of Cheminformatics, 2024) are CC50 values, retold here.

In data set [1] the test system is HepG2 cells. Nature of the data set: Mammalian cell cytotoxicity assay, HepG2 (CellTiter-Glo, 72 h). The following applies: read-out: HEP CC50. Background: Cellular ATP, detected with luciferase, serves as a proxy for viable cell number.
The subject of data set [2] is HEK293T cells. Nature of the data set: Mammalian cell cytotoxicity assay, HEK293T (CellTiter-Glo, 72 h). The following applies: read-out: HEK CC50.

As to Oligomycin A, the figures for the CC50 in data set [1] and in data set [2] were 0.002 µM and 5.58 µM, respectively.

One may read the CC50 as the concentration giving 50% cytotoxicity.
